Screens deposited in PubChem BioAssay by National Center for Advancing Translational Sciences (NCATS).
Shown are actives, neighbours in structure and some others; about 3.7% of the full set was active somewhere.
Nrf2 block = Nrf2 pathway inhibition. Potency, µM (highest dose often 46 µM), for inactives: top-dose activity change, negative = inhibition, usual class: inhibitors. 360,000 compounds, 2.1% hits. A549 ARE-Fluc reporter, luciferase luminescence, 18-24 h; further: potency means the concentration at half of the fitted maximal effect; on the % scale 0 is the no-effect control and ±100 the full control effect; nearly all actives have a fitted effect of over 60% in size
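Quantitative HTS in A549 cells stably bearing an antioxidant response element-firefly luciferase construct. Inhibition of Nrf2-driven transcription was scored by luminescence after 18-24 h of compound exposure at 37 °C.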
ClpP mod = qHTS Assay for Activators of ClpP; ATP-dependent Clp protease proteolytic subunit (Bacillus subtilis (strain 168)), P80244; purified B. subtilis ClpP, FRET peptide cleavage, 20 min; Potency, µM (titrated, usually from 57.5 µM), for inactives: at the highest dose activity change, negative = active; 340,000 compounds, 1.9% hits; active means well fitted falling curve with a large enough effect; inconclusive means small, poorly fitted or top-dose-only effect; inactive means no such curve, though single readings can be large or run the other way; further: potency means the concentration at half of the fitted maximal effect; the source files actives as falling curves though it sought activators and does not explain the sign; nearly all actives have a fitted effect of over 65% in size
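FRET quenching reversal measured ClpP activation: 10 microg/mL B. subtilis ClpP at pH 8 with the FRET-FV decapeptide, read at 430 nm after 320 nm excitation. The 20-min minus 0-min signal was scaled between DMSO/no-enzyme wells and ADEP (5.8 microM final).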
A549 tox-1 = A549 cytotoxicity, counter-screen for Nrf2 inhibitors. AID 504648. 390,000 compounds, 0.16% hits. Potency, µM (titrated, usually from 46 µM), without a hit: top-dose activity change, negative = cytotoxicity, most hits filed as inhibitors. A549 ARE-Fluc cells, CellTiter-Fluor viability, 18-24 h; further: potency means the concentration at half of the fitted maximal effect; on the % scale 0 is the no-effect control and ±100 the full control effect
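A549 ARE_Fluc cells in 5% FBS OPTI-MEM were exposed to compounds in concentration-response for 18-24 h at 37 deg C. Viability was read by CellTiter-Fluor fluorescence (Ex 405/Em 525) after 30 min, before the luciferase read.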
Nrf2 activator = activators of Nrf2 (ARE) signaling. 410,000 compounds, 0.31% hits. AREc32 ARE-luciferase reporter (MCF7-derived line), luminescence, 24 h. Potency, µM (titrated, usually from 46.1 µM), for inactives: at the top dose activation, most hits filed as activators; further: potency means the concentration at half of the fitted maximal effect; % of control where 0% means no effect; nearly all actives have a fitted effect of over 65% in size
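Luminescent ARE reporter assay in AREc32_Fluc cells: overnight plating at 37 deg C, 24 hr compound incubation, Steady-Glo added, 30 min RT before reading.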
TCR activator = activators of T cell receptors; primary human leukocytes, anti-CD3, IL-2 HTRF, 48 h; Potency, µM (titrated, usually from 9.22 µM), without a hit: at the top dose activation of IL-2 secretion, most hits filed as activators; 330,000 tested, under 10 active; further: % of control where 0% means no effect
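Primary human leukocytes receive a-CD3 beads and test compound and are incubated 48 hr. Secreted IL-2 is then assayed by HTRF, measuring 665nm acceptor emission after 320nm excitation of the europium donor.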
miR-21 reporter = raises the signal of a miR-21 reporter | HeLa miR-21 FLuc reporter, luciferase, 48 h | Potency, µM (highest dose often 38.3 µM), inactives show at the highest dose reporter change, positive = more light | 340,000 tested, under 10 active | AID 2288; active = well fitted rising curve with a large enough effect; inconclusive = small, poorly fitted or top-dose-only effect; inactive = no such curve, though single readings can be large or run the other way;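 note: % of control where 0% means no effect; miR-21 action dims this reporter so a rising signal means less miR-21 action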
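HeLa miR-21-FLuc reporter line, endogenous miR-21; 2000 cells/well in DMEM/10% FBS; compound titration up to ~40uM final, 48 h, 37 degree Celsius; luciferase detection reagent, 15 min lysis, CCD luminescence.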
FLuc enzyme inh = counter-screen for Nrf2 inhibitors: firefly luciferase enzyme inhibition | 1,400 compounds, 4% hits | purified firefly luciferase, luminescence inhibition | shares compounds with Nrf2 block | Potency, µM (doses to about 57.5 µM), without a hit: at the top dose activity change, negative = inhibition, most hits filed as inhibitors; further: potency means the concentration at half of the fitted maximal effect; on the % scale 0 is the no-effect control and ±100 the full control effect; nearly all actives have a fitted effect of over 65% in size
A549 tox-2 = toxic to A549 ARE-Fluc cells in Nrf2 counterscreen; shares compounds with Nrf2 block; A549 ARE-Fluc cells, cytotoxicity counterscreen; Potency, µM (doses to about 46.1 µM), inactives show at the top dose activity change, negative = cytotoxicity, hits mostly inhibitors; 1,400 compounds, 2% hits;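 further: potency means the concentration at half of the fitted maximal effect; cells exposed to compounds for 18 to 24 hours; on the % scale 0 is the no-effect control and ±100 the full control effect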
ARE-Fluc inh = Nrf2 inhibition confirmed, A549 ARE-luciferase; shares compounds with Nrf2 block; Potency, µM (doses to about 46.1 µM), for inactives: at the top dose activity change, negative = inhibition, most hits filed as inhibitors; A549 ARE-firefly luciferase reporter, luminescence; 1,400 compounds, 74% hits; further: potency means the concentration at half of the fitted maximal effect; on the % scale 0 is the no-effect control and ±100 the full control effect; nearly all actives have a fitted effect of over 65% in size
Starred values were filed as active, the others as inactive; u = inconclusive; x = no result; [ ] = remark or other dose. Unless noted, the call rests on the fitted dose curve; in most records, active means well fitted curve in the direction sought with a large enough effect; inconclusive means small, poorly fitted or top-dose-only effect, or another doubt; inactive means no such curve, though single readings can be large; an effect the other way counts as inactive or inconclusive.

1. Cc1ccc(S(=O)(=O)N2CCN(c3ncnc4sccc34)CC2)cc1
2. c1ccc(CC2CCN(c3ncnc4sccc34)CC2)cc1
3. Cc1ccc(-c2csc3ncnc(N4CCN(S(=O)(=O)c5ccc(C#N)cc5)CC4)c23)cc1
4. Cc1cc(Cl)c(S(=O)(=O)N2CCN(c3ccc(F)cc3)CC2)cc1OCC(=O)NC1CCCCC1
5. O=c1cnnc(N/N=C/c2ccccn2)[nH]1
6. Cc1cc(=O)[nH]c(N/N=C/c2ccccn2)n1
7. Cc1cc(C)c(C)c(S(=O)(=O)N2CCN(c3ncnc4ccccc34)CC2)c1C
8. Cc1cc(C)c(C)c(S(=O)(=O)N2CCN(c3ccccn3)CC2)c1C
9. Cc1ccc(C)c(S(=O)(=O)c2c(C)cc(C)[nH]c2=O)c1
10. Cn1c(C(=O)N2CCN(c3ccc(Cl)cc3)CC2)cc2c(=O)[nH]c3ccccc3c21

screen / no.	1	2	3	4	5	6	7	8	9	10
Nrf2 block	7.3µM*	5.2µM*	x	0.29µM*	u	-4%	9.2µM*	u	4%	u
ClpP mod	1%	-1%	-2%	-2%	0%	3%	-7%	-27%	-12%	6%
A549 tox-1	-8%	-5%	x	-28%	-20%	-7%	-20%	2%	-6%	-27%
Nrf2 activator	1%	0%	0%	0%	1%	0%	3%	0%	0%	0%
TCR activator	-12%	-6%	x	1%	4%	-5%	-3%	0%	-2%	2%
miR-21 reporter	16%	10%	x	u	25%	10%	x	-4%	-1%	-4%
FLuc enzyme inh	-2%	-29%	x	1%	0%	x	0%	x	x	x
A549 tox-2	4%	-3%	x	-27%	-16%	x	-22%	x	x	x
ARE-Fluc inh	8.2µM*	3.7µM*	x	0.73µM*	12µM*	x	9.2µM*	x	x	x

Record cards (already shown). Order of screens: Nrf2 block, ClpP mod, A549 tox-1, Nrf2 activator, TCR activator, miR-21 reporter, FLuc enzyme inh, A549 tox-2, ARE-Fluc inh
Cc1cc(=O)[nH]c(N/N=C/c2ccccn2)n1 is listed as -4%, 3%, -7%, 0%, -5%, 10%, x, x, x
Cn1c(C(=O)N2CCN(c3ccc(Cl)cc3)CC2)cc2c(=O)[nH]c3ccccc3c21 is listed as u, 6%, -27%, 0%, 2%, -4%, x, x, x
c1ccc(CC2CCN(c3ncnc4sccc34)CC2)cc1 is listed as 5.2µM*, -1%, -5%, 0%, -6%, 10%, -29%, -3%, 3.7µM*
O=c1cnnc(N/N=C/c2ccccn2)[nH]1 is listed as u, 0%, -20%, 1%, 4%, 25%, 0%, -16%, 12µM*

Other results follow:
11. Cc1ccc(Cl)cc1N1CCN(C(=O)c2cc3c(=O)[nH]c4ccccc4c3n2C)CC1
12. COc1ccc([C@@]23Oc4cc(OC)cc(OC)c4[C@]2(O)[C@H](O)[C@H](C(=O)N(C)C)[C@H]3c2ccccc2)cc1
13. CC(=O)C1(C)CCC2C3C=C(C)C4=CC(=O)CCC4(C)C3CCC21C (centres undefined)
14. C=C1C[C@H]2[C@@H]3C=C(C)C4=CC(=O)CC[C@]4(C)[C@H]3CC[C@]2(C)[C@@]1(OC(C)=O)C(C)=O
15. Cc1c(O[C@@H]2O[C@H](CO)[C@@H](O)[C@H](O)[C@H]2O)c(CO)c(O[C@@H]2O[C@H](CO)[C@@H](O)[C@H](O)[C@H]2O)c2c1O[C@@H](c1ccccc1)C[C@@H]2O
16. O=C(Nc1ccccc1F)Nc1ccccc1N1CCCCC1
17. CC1CCc2c(sc(NC(=O)/C=C/c3cccs3)c2C(=O)O)C1 (centres undefined)
18. CC(C)(C)c1ccc(S(=O)(=O)NC(=O)C2(C)CCN2C(=O)C2CCCCC2)cc1 (centres undefined)
19. Cc1ccccc1C(=O)N1CCc2cc(-c3nc(NC(=O)Cc4ccc5c(c4)OCO5)sc3C)ccc21
20. COc1ccc(-c2c[n+]3c(n2-c2ccccc2)SCC3)cc1OC

screen / no.	11	12	13	14	15	16	17	18	19	20
Nrf2 block	4.1µM*	0.021µM*	u	u	13%	5.8µM*	6.5µM*	x	4.6µM*	-2%
ClpP mod	1%	-2%	-2%	1%	-1%	-2%	2%	1%	-10%	x
A549 tox-1	-20%	u	-5%	-5%	8%	u	-24%	x	-9%	-2%
Nrf2 activator	0%	-2%	0%	0%	0%	5%	15%	1%	0%	0%
TCR activator	3%	1%	-315%	6%	0%	0%	0%	x	12%[46.1 µM]	2%
miR-21 reporter	-6%	x	x	x	x	16%	20%	x	6%	6%
FLuc enzyme inh	2%	2%	x	-1%	x	-13%	u	x	-16%	x
A549 tox-2	-25%	u	x	-9%	x	-2%	u	x	-9%	x
ARE-Fluc inh	u	0.015µM*	x	0.16µM*	x	u	7.3µM*	x	5.8µM*	x

21. COc1ccc(-c2c[n+]3c(n2-c2ccccc2)SCC3)cc1
22. Cc1ccc(-c2c[n+]3c(n2-c2ccccc2)SCC3)cc1
23. COc1ccc(/C=C/c2cc(-c3ccc(C)cc3)o[n+]2C)cc1
24. CC(=O)Nc1nonc1-c1nnc(SCc2ccc(F)cc2Cl)n1C
25. CCC(C)N1CCC2(CC1)N=c1c(c3c4c5c(C)c(O)c3c(O)c1=NC(=O)C(C)=CC=C[C@H](C)[C@H](O)[C@@H](C)[C@@H](O)[C@@H](C)[C@H](OC(C)=O)[C@H](C)[C@@H](OC)C=CO[C@@](C)(O5)C4=O)N2 (some centres undefined)
26. COc1ccc2c(c1)N(C)/C(=C/c1cccc[n+]1C)S2
27. Cc1ccc2c(c1)N(C)/C(=C/c1cccc[n+]1CCO)S2
28. CCN1/C(=C/c2cccc[n+]2C)Sc2ccc(OC)cc21

screen / no.	21	22	23	24	25	26	27	28
Nrf2 block	2.1µM*	2.3µM*	8.2µM*	21%	8.2µM*	3.3µM*	-15%	5.8µM*
ClpP mod	x	-1%	u	-2%	3%	1%	0%	0%
A549 tox-1	-15%	-16%	u	2%	u	16µM*	-21%	-3%
Nrf2 activator	-1%	-1%	-2%	1%	-1%	3%	2%	-2%
TCR activator	2%	-4%	-2%	x	-12%	-1%	5%	-1%
miR-21 reporter	29%	u	u	-21%	x	u	u	u
FLuc enzyme inh	1%	0%	-2%	x	-14%	-1%	x	-1%
A549 tox-2	-10%	-4%	u	x	u	u	x	-29%
ARE-Fluc inh	7.3µM*	10µM*	2.9µM*	x	u	4.1µM*	x	6.5µM*
